Reference: article PMC10974743, “Design, Synthesis, and Biological Evaluation of Novel Phenoxy Acetic Acid Derivatives as Selective COX-2 Inhibitors Coupled with Comprehensive Bio-Pharmacological Inquiry, Histopathological Profiling, and Toxicological Scrutiny” (Molecules, 2024)

Tested on: paw tissue, carrageenan paw edema model
Experiment: Histopathological examination of paws, inflammatory cell infiltration score
Settings: vs carrageenan group, 5 hours

Cc1ccc(-c2cc(C(F)(F)F)nn2-c2ccc(S(N)(=O)=O)cc2)cc1 [Celecoxib, celecoxib, reference compound]
Reduction in inflammatory cell infiltration score: 59.26%
